Our source for the Kd values is patent US20220024982A1 (Bicycle, published 2022).

The test deals with T1, MT1-MMP Hemopexin domain (PEX) (UniProt P50281 319-511).
T1 construct: domain: Hemopexin domain (PEX); Target of the fluorescence polarisation assays; also called hemopexin of MT1-MMP; MMP14
The experiment in a line: FP competition vs tracer 17-69-07-N040. An excerpt:
Here, a pre-formed complex of PEX with the fluorescent PEX-binding tracer is titrated with free, non-fluoresceinated bicyclic peptide. Since all 17-69-based peptides are expected to bind at the same site, the titrant will displace the fluorescent tracer from PEX. Dissociation of the complex can be measured quantitatively, and the Kd of the competitor (titrant) to the target protein determined. The advantage of the competition method is that the affinities of non-fluoresceinated bicyclic peptides can be determined accurately and rapidly.
Subsequently, the non-fluorescent competitor bicyclic peptide (usually just the bicycle core sequence) is titrated, such that it displaces the fluorescent tracer from the target protein. The displacement of the tracer is measured and associated with a drop in fluorescence polarisation. The drop in fluorescence polarisation is proportional to the fraction of target protein bound with the non-fluorescent titrant, and thus is a measure of the affinity of titrant to target protein.
The raw data is fit to the analytical solution of the cubic equation that describes the equilibria between fluorescent tracer, titrant, and binding protein. The fit requires the value of the affinity of fluorescent tracer to the target protein, which can be determined separately by direct binding FP experiments (see previous section).

B1: 17-129-01-T04 (peptide)
peptide: ISSYGCPGECFYPPGHPLACA
modifications: 3 Cys linked to TATA scaffold
As for B1, binding was put at a Kd of 0.705 µM.

B2: 17-126-27 (peptide)
peptide: ACEEQFYPCTHPLYVCA
modifications: 3 Cys linked to TATA scaffold
For B2, binding was put at a Kd of 0.143 µM.

B3: 17-126-37-T01 (peptide)
peptide: AVWCEEAFYPCSHPLHPCA
modifications: 3 Cys linked to TATA scaffold
Turning to B3, binding was put at a Kd of 0.155 µM.

B4: 17-126-33-T01 (peptide)
peptide: WSPCEEAFYPCNHPLYTCA
modifications: 3 Cys linked to TATA scaffold
On to B4, for which the Kd is 0.244 µM.

B5: 17-126-31-T01 (peptide)
peptide: GPHCAEQFYPCDHPLYRCA
modifications: 3 Cys linked to TATA scaffold
The molecule B5 came in with a Kd of 0.295 µM.

B6: 17-129-01-T05 (peptide)
peptide: ENITTCPGECFYPPGHPLACA
modifications: 3 Cys linked to TATA scaffold
As for B6, the Kd is 0.324 µM.

B7: 17-129-03 (peptide)
peptide: ACPQECFYPIGHPLACA
modifications: 3 Cys linked to TATA scaffold
B7 showed a Kd of 0.536 µM.

B8: 17-129-05 (peptide)
peptide: ACPQECFYPPGHRLRCA
modifications: 3 Cys linked to TATA scaffold
With B8, the dissociation constant (Kd) turned out to be 0.136 µM.

B9: 17-126-38-T01 (peptide)
peptide: KVQCEEAFYPCSHPLFVCA
modifications: 3 Cys linked to TATA scaffold
B9 came in with a Kd of 0.162 µM.

B10: 17-126-35-T01 (peptide)
peptide: DLHCAEAFYPCDHPLYVCA
modifications: 3 Cys linked to TATA scaffold
The molecule B10 came in with a Kd of 0.263 µM.

B11: 17-126-39-T01 (peptide)
peptide: ACEEQFYPCSHPLYSCPDVA
modifications: 3 Cys linked to TATA scaffold
The molecule B11 displayed a Kd of 0.187 µM.

B12: 17-129-04 (peptide)
peptide: ACPEECFYPPGHKLHCA
modifications: 3 Cys linked to TATA scaffold
B12 came in with a Kd of 0.595 µM.

B13: 17-126-30-T01 (peptide)
peptide: HSPCEEQFYPCSHPLYRCA
modifications: 3 Cys linked to TATA scaffold
Turning to B13, the affinity, expressed as Kd, was 0.239 µM.

B14: 17-129-02 (peptide)
peptide: ACPGECFYPTNHPLYCA
modifications: 3 Cys linked to TATA scaffold
As for B14, the Kd turned out to be 0.877 µM.

B15: 17-129-01-T03 (peptide)
peptide: SLVCPGECFYPPGHPLACA
modifications: 3 Cys linked to TATA scaffold
For the molecule B15, the Kd came to 0.598 µM.

B16: 17-129-00 (peptide)
peptide: ACPQECFYLPGHSLYCA
modifications: 3 Cys linked to TATA scaffold
For B16, the affinity, expressed as Kd, was 0.446 µM.

B17: 17-126-40-T01 (peptide)
peptide: ACEEAFYPCEHPLYMCHQAA
modifications: 3 Cys linked to TATA scaffold
Take B17: binding was put at a Kd of 0.31 µM.

B18: 17-127-01 (peptide)
peptide: ACPEECFYLPPHPMSCA
modifications: 3 Cys linked to TATA scaffold
In the case of B18, the affinity, expressed as Kd, was 2.2 µM.

B19: 17-126-28 (peptide)
peptide: ACPEQFYPCTHRLYQCA
modifications: 3 Cys linked to TATA scaffold
B19 returned a Kd of 0.25 µM.

B20: 17-126-26 (peptide)
peptide: ACDEDFYPCGHYLNQCA
modifications: 3 Cys linked to TATA scaffold
Take B20: the Kd stood at 1.2 µM.

B21: 17-126-32-T01 (peptide)
peptide: IHSCAEEFYPCDHPLYRCA
modifications: 3 Cys linked to TATA scaffold
B21 had a Kd of 0.39 µM.

B22: 17-126-33-T02 (peptide)
peptide: SHSCEEAFYPCNHPLYTCA
modifications: 3 Cys linked to TATA scaffold
Turning to B22, the Kd worked out at 0.296 µM.

B23: 17-129-01-T01 (peptide)
peptide: SQTCPGECFYPPGHPLACA
modifications: 3 Cys linked to TATA scaffold
As to B23, the Kd worked out at 0.499 µM.

B24: 17-129-01-T02 (peptide)
peptide: SMTCPGECFYPPGHPLACA
modifications: 3 Cys linked to TATA scaffold
With B24, the Kd turned out to be 0.525 µM.

B25: 17-126-41-T01 (peptide)
peptide: ACEEQFYPCNHPLYMCRENA
modifications: 3 Cys linked to TATA scaffold
As to B25, the Kd was 0.202 µM.

B26: 17-126-36-T01 (peptide)
peptide: ANECEEAFYPCSHPLFICA
modifications: 3 Cys linked to TATA scaffold
B26 returned a Kd of 0.149 µM.

In general, Kd refers to the constant that tells how readily two partners part at equilibrium.
